Patent US12059472B2 (Bayer Aktiengesellschaft, priority 2016, dated 2024)

Test system: Caco-2 cells
Test: Caco-2 flux assay for cell permeability
Type: in vitro ADME
Conditions: Caco-2, basal to apical, 2 hours
Description: The cell permeability of a substance can be investigated by means of in vitro testing in a flux assay using Caco-2 cells [M. D. Troutman and D. R. Thakker, Pharm. […] For this purpose, the cells were cultured for 15-16 days on 24-well filter plates. For the determination of permeation, the respective test substance was applied in a HEPES buffer to the cells either apically (A) or basally (B) and incubated for 2 hours. After 0 hours and after 2 hours, samples were taken from the cis and trans compartments. The samples were separated by HPLC (Agilent 1200, Böblingen, Germany) using reverse phase columns. The HPLC system was coupled via a Turbo Ion Spray Interface to a Triple Quadropol mass spectrometer API 4000 (AB SCIEX Deutschland GmbH, Darmstadt, Germany).
Of critical importance for toxophors which are released intracellularly is the permeability from B to A [Papp (B-A)] and the ratio of Papp (B-A) to Papp (A-B) (efflux ratio): the lower this permeability, the slower the active and passive transport processes of the substance through the monolayer of Caco-2 cells.

Papp (B-A): 21.3 ×10⁻⁶ cm/s
SMILES: CC(C)(C)[C@H](c1cc(-c2cc(F)ccc2F)cn1Cc1ccccc1)N(CCCN)C(=O)CO [Example M4, N-(3-Aminopropyl)-N-{(1R)-1-[1-benzyl-4-(2,5-difluorophenyl)-1H-pyrrol-2-yl]-2,2-dimethylpropyl}-2-hydroxyacetamide]
